The numbers were not newly measured in publication PMC5663926, “In vivo near-infrared imaging of ErbB2 expressing breast tumors with dual-axes confocal endomicroscopy using a targeted peptide” (Scientific Reports, 2017), which cites them from elsewhere.

For data set [1], the system named is human BT474 xenograft breast tumors. The settings on record: in vivo; cited from earlier work. On the procedure:
ErbB2 antibodies are being used clinically to detect breast cancer metastases in vivo with whole-body imaging methods, such as PET and SPECT[13],[14]. Other targeting ligands are being evaluated in pre-clinical models. Antibody fragments, such as the Fab component of trastuzumab, have been radiolabeled with^111In, and used to visualize human BT474 xenograft breast tumors as early as 24 hours post-injection[35]. By comparison, we were able to detect peak signal with an ErbB2 peptide at 1 hour post-injection. Affibody molecules are small, stable non-immunoglobulin scaffold-based proteins that ha ...

Another data set concerns ErbB2. The settings on record: cited from earlier work. From the text: Commonly used clinically for breast cancer therapy, this antibody has recently been repurposed to visualize ErbB2 expression using PET and SPECT[13],[14]. Antibodies are bulky in size, and have limited usefulness for diagnostic imaging because of slow binding kinetics, long circulatory half-life, and increased background. Performance can also be impaired by slow tumor localization, heterogeneous distribution, and inadequate concentration, while immunogenicity can limit repeated use. We have de ...

Fab component of trastuzumab: in data set [1], the “earliest time of tumor visualization” value is 24 h.
With “trastuzumab: monoclonal antibody against ErbB2”, the “affinity and specificity for ErbB2” value with ErbB2 was “high affinity and specificity”.
